Data from publication PMC5687611 (Oncotarget, 2017).

Biological target: soluble human PD-L1 ([…]) (human)
Assay: SPR; Biacore T200, biotinylated hPD-1 captured on streptavidin-coated CM5 chip, hPD-L1 and variants injected, single-cycle kinetics, 1:1 binding model, room temperature
Conditions: both partners purified

B1: biotinylated hPD-1 (residues 33-150, C93S, with biotin tag) (domain or fragment)
chain: NPPTFSPALLVVTEGDNATFTCSFSNTSESFVLNWYRMSPSNQTDKLAAFPEDRSQPGQDSRFRVTQLPNGRDFHMSVVRARRNDSGTYLCGAISLAPKAQIKESLRAELRVTERRAE
modifications: biotin on the biotin tag (BirA biotin ligase)
Kd: 17.7 µM | koff: 0.77 s⁻¹ | kon: 43600 M⁻¹ s⁻¹
